Experimental data reported in US20200375958A1, “MEMBRANE ACTIVE MOLECULES” (priority 2017, published 2020).

System: mouse
Conditions: intravenous
Method: Butyric acid was dissolved in water to form an 8 M solution. 0.5 mL of the 8 M solution of butyric acid was injected subcutaneously (at the back of the neck) into the mouse.
3-hydroxybutyric acid was dissolved in water to form 1 M, 1.5 M, and 2 M solutions. 0.2 mL of a 1.5 M solution of 3-hydroxybutyric acid was injected into a tail vein of a CD-1 mouse. […] This was repeated for at least 2 more times on subsequent days.
Ethylmalonic acid was dissolved in water to form 2 M, 3 M, and 4 M solutions. 0.2 mL of a 3 M solution of ethylmalonic acid was injected into a tail vein of a mouse. […] This was repeated for at least 2 more times on subsequent days.
Ethylmalonic acid was dissolved in water to form a 4 M solution. 0.5 mL of the 4 M solution of ethylmalonic acid was injected subcutaneously into the mouse.

ethyl isovaleric acid
Lethality to the animals (250 mM solution in intralipid): lethal | Lethality to the animals (1M solution in intralipid): lethal

Read-outs that look alike come from different tables or passages of the source.
